We go through one substance from paper PMC9140012, “Epigenetic-Like Stimulation of Receptor Expression in SSTR2 Transfected HEK293 Cells as a New Therapeutic Strategy” (Cancers, 2022).

The test system of the assay is SSTR2 in HEKsst2 cells. Briefly: Intracellular Lu-177-DOTATATE uptake, HEKsst2. It counts as cell-based, murine. Particulars: 1 h; 3.9 µM 5-aza-dC and 1.85 mM VPA; p < 0.05. As for the experimental part: HEK293 cells were obtained from the German Resource Center for Biological Material (DSMZ, Braunschweig, Germany) and grown in Dulbecco’s modified Eagle´s medium supplemented with 10% fetal calf serum (FCS) in a humidified atmosphere containing 5% CO2. Cells were transfected with plasmid, encoding murine HA-tagged SSTR2 receptors using lipofectamine according to the manufacturing instructions (Thermofisher, Darmstadt, Germany). Stable transfectants were selected in the presence of 500 µg/mL G-418 and characterized using radioligand binding assays, Western blot analyses, surface ELISA assays and immunocytochemistry as described previously. Non-transfected HEK293 cells were maintained under equal conditions as HEKsst2 except for the addition of G-418. In the following, HEK293 cells and SSTR2 transfected HEK293 cells are termed as HEK and HEKsst2, respectively. […]
After incubation times, the supernatant of the well was removed and the cells were washed twice with PBS (phosphate buffered saline) at 4 °C. […] The activity of all fractions was measured using a Gamma-Counter (Cobra II, Autogamma, Packard®, Canberra Company, Ruesselsheim, Germany). The intracellular activity was expressed as a percentage of the total activity normalized to the cell count of 2.0 × 10^5. […]

For the substance “(DOTA)-[Tyr3, Thr8]-octreotide [Lu-177-DOTATATE, SSTR2-targeted radioligand, Lu-177 labelled (DOTA)-[Tyr3, Thr8]-octreotide]”, the “increase in Lu-177-DOTATATE uptake vs unstimulated” value came to 2160%.
